# Yeast mating assay 2: variants of the scFv Ab-95

Reference: Engelhart et al. 2022, doi:10.1038/s41597-022-01779-4. File: FLAb, binding data.

Target peptide (SARS-CoV-2 spike, HR2 region): PDVDLGDISGINAS

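The parent was found by panning a naive human phage display library on the peptide. The library (AAYL52) carries one to three amino acid substitutions per variant, with no insertions or deletions. Affinity was read by AlphaSeq, a pooled yeast mating assay with surface-displayed partners. Pairs that bind mate more often; barcode pairs of the diploids are counted by sequencing. Each replicate has its own calibration line, from reference interactions of the BCL2 family. Mating was done three times.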

Parent scFv Ab-95: VH joined to VL by three GGGGS repeats. Changes lie in the light chain CDRs alone.
VH: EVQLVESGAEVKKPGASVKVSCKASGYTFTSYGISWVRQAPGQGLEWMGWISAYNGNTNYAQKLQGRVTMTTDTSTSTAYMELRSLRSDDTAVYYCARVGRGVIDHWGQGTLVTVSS
VL: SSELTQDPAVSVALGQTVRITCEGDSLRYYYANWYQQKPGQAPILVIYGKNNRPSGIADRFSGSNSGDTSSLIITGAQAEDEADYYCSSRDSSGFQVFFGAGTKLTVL

Variants are written as CDR1, CDR2 and CDR3 of the light chain (limits as in the source). Parent: EGDSLRYYYAN, GKNNRPS, SSRDSSGFQVF. Every variant below is changed at Y29 of the VL (sequential numbering). Numbers give log10(Kd / nM), so 0 is 1 nM and 3 is 1 µM. Smaller is tighter. Averages over replicates are reported, and they cover detected replicates only. "nd" marks a missing value. The strain was present, yet no cells mated with the target were sequenced in that replicate, which points to weak or no binding. Nonspecific signal, from three strains lacking the peptide, appeared in 28% of pairings of library AAYL52, centred on 3.91 (5% of these signals below 2.90); values are not corrected for it. The control count says in how many pairings with the empty strains this scFv gave a signal. For reference, the parent read 2.31 as the reference entry and 2.25 as a member of this library.

The variant EGDSLRNYRAN, GKNNRPS, SSHDSSGFQVF showed 3.32, 3.89, 2.75 (mean 3.32; controls 2 of 9).
The variant EGDSLRKYYAN, WKNARPS, SSRDSSGFQVF showed 3.46, nd, nd (controls 2 of 9).
The variant EGDSLRNDYAN, GKNNRPS, ASRDSSGFQVF showed 1.98, 2.18, 1.90 (mean 2.02; controls 1 of 9).
The variant RGDSLRNYYAN, GKNNRVS, SSRDSSGFQVF showed 2.14, 1.94, 1.69 (mean 1.92; controls 2 of 9).
The variant EGLSLRKYGAN, GKNNRPS, SSRDSSGFQVF showed 2.64, 2.73, 2.43 (mean 2.60; controls 7 of 9).
The variant EGDSLRIAYAN, GKNNRPS, SSSDSSGFQVF showed 4.10, nd, nd (controls 6 of 9).
The variant EGDSLRDYYAN, GKNNRWS, PSRDSSGFQVF showed nd, nd, nd (controls 0 of 9).
The variant EGDSLRNYYPN, GKNNRPS, SSRDSSGFQVY showed 1.65, 1.45, 1.21 (mean 1.43; controls 3 of 9).
The variant EGDSARTYYMN, GKNNRPS, SSRDSSGFQVF showed 3.71, 3.10, 3.93 (mean 3.58; controls 4 of 9).
The variant EGDSLREYYAN, GKNNRPS, SSRDSSGFQVF showed 2.12, 2.02, 1.97 (mean 2.03; controls 3 of 9).
The variant EGDSLRRYYAN, GKNNRPS, GSRDSSGFQCF showed 3.83, 2.64, 1.92 (mean 2.80; controls 0 of 9).
The variant EGDSLHNYYAN, GKNNRPS, SSRDSSSFQVF showed nd, 3.63, nd (controls 1 of 9).
The variant EGDSMIMYYAN, GKNNRPS, SSRDSSGFQVF showed nd, nd, 3.74 (controls 2 of 9).
The variant EGDSLRTYYAN, GKPNRPS, SSRDSSGFHVF showed 2.88, 2.25, 2.69 (mean 2.61; controls 3 of 9).
The variant EGDSLRLYYAN, GKNNRPS, SSHDSSGFQYF showed nd, nd, nd (controls 1 of 9).
The variant EGDSLRDYYAN, GKNNRPS, SSRRSSGVQVF showed nd, nd, nd (controls 0 of 9).
The variant EGQSLRVYYAN, FKNNRPS, SSRDSSGFQVF showed nd, nd, nd (controls 2 of 9).
The variant EHDSLRWYYAN, GKNNRPS, SSRDLSGFQVF showed 3.35, 3.45, 2.52 (mean 3.10; controls 3 of 9).
The variant SGDSLRHYYAF, GKNNRPS, SSRDSSGFQVF showed 1.38, 1.41, 1.12 (mean 1.30; controls 2 of 9).
The variant EGDSLRQYNAN, GKNNRPS, SSRNSSGFQVF showed nd, nd, nd (controls 1 of 9).
The variant EGGSLRWYYAN, GKNNRPS, SSRDSSGFQVF showed 1.96, 1.42, 1.25 (mean 1.54; controls 8 of 9).
The variant EGDSLRWYYAN, GKNHRPS, SSRDSSGFQVF showed 2.93, 4.51, nd (mean 3.72; controls 0 of 9).
The variant EGDSLRIQYAN, GKNNRFS, SSRDSSGFQVF showed 2.65, 2.72, 2.29 (mean 2.55; controls 5 of 9).
The variant EGDSMREYYAN, GKNYRPS, SSRDSSGFQVF showed 2.04, 2.20, 2.27 (mean 2.17; controls 1 of 9).
The variant EGDSLRWYYAN, GKNNRPS, SSNDNSGFQVF showed nd, 2.65, nd (controls 4 of 9).
The variant EGDSLRHYYAN, GKNNRPD, SWRDSSGFQVF showed 1.97, 1.86, 1.11 (mean 1.65; controls 2 of 9).
The variant EGMSLYLYYAN, GKNNRPS, SSRDSSGFQVF showed 3.01, 2.38, 4.10 (mean 3.16; controls 1 of 9).
The variant ELDSLRGYYAN, GKNNRPS, SSRYSSGFQVF showed 3.82, 3.05, 3.91 (mean 3.59; controls 3 of 9).
The variant EGDKLRHYYAN, GKNNRPS, SSRDMSGFQVF showed 4.53, 4.55, nd (mean 4.54; controls 3 of 9).
The variant EGDSLRRYYAN, VKSNRPS, SSRDSSGFQVF showed 5.06, 3.68, nd (mean 4.37; controls 3 of 9).
The variant EGDSLRLYYAN, GKNNRPS, SPRDSSGFQYF showed 3.30, 3.22, nd (mean 3.26; controls 3 of 9).
The variant EGDSLRAYYAH, GKNNRPS, SSRDKSGFQVF showed nd, 4.90, nd (controls 1 of 9).
The variant EGDSLREYYAN, CKNNRPS, SSRDSSGFQHF showed nd, nd, nd (controls 0 of 9).
The variant EGDSLRAYYAQ, GKNNRPS, SSRDSSGFQVF showed 3.24, 3.70, 4.73 (mean 3.89; controls 7 of 9).
The variant EGDSARRYYAN, GKNNRRS, SSRDSSGFQVF showed 3.97, nd, 3.17 (mean 3.57; controls 4 of 9).
The variant EGDFLRTYKAN, GKNNRPS, SSRDSSGFQVF showed 2.24, 2.38, 2.13 (mean 2.25; controls 5 of 9).
The variant EGDSWRTYYAN, GKNNRPS, SSNDSSGFQVF showed nd, nd, nd (controls 0 of 9).
The variant EADSLRNYYAN, GKNNRPS, SSRDSSYFQVF showed 3.02, 2.66, 3.35 (mean 3.01; controls 4 of 9).
The variant EGDSLREYYAN, GPNNRPS, SSRDYSGFQVF showed 2.17, 2.75, 1.77 (mean 2.23; controls 1 of 9).
The variant EGDSLRNYYAN, GKYNRPS, SSRDSSGFQVF showed 2.24, 1.98, 1.99 (mean 2.07; controls 5 of 9).
The variant EGDSLRNYYAN, GKNNRPS, SSHDPSGFQVF showed 3.55, 2.58, 3.19 (mean 3.11; controls 4 of 9).
The variant EGDSLRDYYAN, GNNNRPS, SSRHSSGFQVF showed 1.45, 1.45, 0.90 (mean 1.27; controls 3 of 9).
The variant EGDRLRSYYAN, GKNNRPS, SSRDWSGFQVF showed nd, 3.40, 4.04 (mean 3.72; controls 3 of 9).
The variant EGDSLRWYYAN, GKNNRPS, SSRESSGFNVF showed 2.53, nd, 2.26 (mean 2.40; controls 1 of 9).
The variant EGDSLRDYYAN, GKNDRPS, SSRDSSGFSVF showed 2.56, 4.32, 2.66 (mean 3.18; controls 3 of 9).
The variant IGDSLRKYGAN, GKNNRPS, SSRDSSGFQVF showed 2.51, 2.04, 2.74 (mean 2.43; controls 2 of 9).
The variant EGDSLRRYIAN, GKNNRNS, SSRDSSGFQVF showed 5.23, 3.00, nd (mean 4.11; controls 3 of 9).
The variant EGGSLRHYYAN, GKNNRPS, SSRDSSGFLVF showed 3.01, 3.87, 3.15 (mean 3.34; controls 3 of 9).
The variant EGDSLRFYYAN, GKNNRPS, SSRDSSGFGTF showed 3.65, 5.32, 4.06 (mean 4.34; controls 4 of 9).
The variant EGDSLRSYYEN, GKNNRDS, SSRDSSGFQVF showed 3.35, nd, nd (controls 1 of 9).

4 of these entries, quoted again:

{"CDR-L1": "EGDSLRHYYAN", "CDR-L2": "GKNNRPD", "CDR-L3": "SWRDSSGFQVF", "log10 Kd, replicates": "1.97, 1.86, 1.11", "mean log10 Kd (nM)": "1.65", "signal with controls": "2/9"}
{"CDR-L1": "EGDSLRIQYAN", "CDR-L2": "GKNNRFS", "CDR-L3": "SSRDSSGFQVF", "log10 Kd, replicates": "2.65, 2.72, 2.29", "mean log10 Kd (nM)": "2.55", "signal with controls": "5/9"}
{"CDR-L1": "EGDSLRDYYAN", "CDR-L2": "GKNNRWS", "CDR-L3": "PSRDSSGFQVF", "log10 Kd, replicates": "nd, nd, nd", "mean log10 Kd (nM)": "nd", "signal with controls": "0/9"}
{"CDR-L1": "EGDSARTYYMN", "CDR-L2": "GKNNRPS", "CDR-L3": "SSRDSSGFQVF", "log10 Kd, replicates": "3.71, 3.10, 3.93", "mean log10 Kd (nM)": "3.58", "signal with controls": "4/9"}